Measurements published in PubChem BioAssay AID602274 (Sanford-Burnham Center for Chemical Genomics, 2012).
This is a selection; strong and weak results do not stand in their true shares. Active and inactive are the calls of the source. Rule as the data show it: active = survival enhancement above about 18%; inactive = the rest.

assay: enhancers of single-cell hiPSC survival, primary screen, ATPlite luminescence (AID 602274); settings: at 20 µM, hits give high values, 100% = ROCK inhibitor wells, 0% = DMSO;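 also: cells exposed to compounds for 16 hours before the ATP read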

Compound | survival enhancement
CN(C)C(=O)Oc1noc2ccccc12 | inactive: -0.1%
CC(NC(=O)COC(=O)C(O)(c1ccccc1)c1ccccc1)c1ccccc1 (stereo not drawn) | inactive: -0.2%
Cc1ccccc1OP(=O)(Nc1ccccn1)Oc1ccccc1C | inactive: -0.7%
CC(=O)NC(SC(=S)N(CC(C)C)CC(C)C)C(Cl)(Cl)Cl (stereo not drawn) | inactive: -1.2%
Cc1ccc(OP(=O)(Nc2ccccn2)Oc2ccc(C)cc2)cc1 | inactive: -0.3%
COC(=O)c1cc2c(s1)N=C(c1ccccc1)N(C)P2(=O)N1CCOCC1 (stereo not drawn) | inactive: -2.2%
CCC(=O)N1C2C3N(C(=O)CC)C1C1N(C(=O)CC)C(C(N1C(=O)CC)N3C(=O)CC)N2C(=O)CC | inactive: 6.6%
O=C(OC1CN2CCC1CC2)c1ccccc1 (stereo not drawn) | inactive: -0.3%
O=P1(N(CCCl)CCCl)OCCC2CCCCN21 (stereo not drawn) | inactive: 1.9%
O=C(NC1CCS(=O)(=O)C1)NP(=S)(Oc1ccccc1)Oc1ccccc1 (stereo not drawn) | inactive: -1.9%
CCNC(=S)/N=C(\N)N[N+](=O)[O-] | inactive: -0.3%
Cc1ccc(NP(=O)(Oc2cccc(C)c2)Oc2cccc(C)c2)nc1 | inactive: 0.5%
c1ccc(-c2nn[nH]n2)c(-c2nn[nH]n2)c1 | inactive: 1.7%
CC(=O)Nc1ccc(Oc2c([N+](=O)[O-])cc([N+](=O)[O-])cc2[N+](=O)[O-])cc1 | inactive: 0%
CC(=O)Nc1ccc([As](=O)(O)O)c(O)c1 | inactive: 0%
COC(=O)C1(C)COP(=O)(NCc2ccccc2)OC1 (stereo not drawn) | inactive: 3.4%
CC(=O)c1ccc(N2CC2c2ccncc2)cc1 (stereo not drawn) | inactive: 0.7%
N#C/C(=C\c1ccc(N(CCBr)CCBr)cc1)C(N)=O | inactive: 0.5%
C[C@H]1OP(=O)(Oc2ccccc2)C[C@@H]2O[C@@H]21 (stereo partly drawn) | inactive: -3.7%
C[C@@H]1C=CCP(=O)(Oc2ccccc2)O1 (stereo partly drawn) | inactive: -0.6%
Cc1ccccc1CN(C)C(=O)COC(=O)C(O)(c1ccccc1)c1ccccc1 | inactive: -0.4%
CCc1cc(O)c([N+](=O)[O-])c(C)c1[N+](=O)[O-] | inactive: -2%
CC(C)(C)C(=O)NC(Sc1ccccc1)C(Cl)(Cl)Cl (stereo not drawn) | inactive: 2.2%

Compound | survival enhancement
CCOc1ccc(C2=NCC(CBr)S2)cc1 (stereo not drawn) | inactive: 2.1%
O=P1(Nc2nc3ccc(Cl)cc3s2)COc2ccccc2O1 (stereo not drawn) | inactive: -0.2%
O=[N+]([O-])C1C(O)C(O)C([N+](=O)[O-])C(O)C1O (stereo not drawn) | inactive: 1.2%
Nc1cc(N)c2nonc2c1[N+](=O)[O-] | inactive: 0%
CC(C)CC(=O)NC(Sc1ccc(Cl)cc1)C(Cl)(Cl)Cl (stereo not drawn) | inactive: 1.7%
O=C(NC(Sc1ccncn1)C(Cl)(Cl)Cl)c1ccccc1 (stereo not drawn) | inactive: -1.1%
Oc1ccccc1CNc1ccccn1 | inactive: 1%
Cc1ccc(OP(=O)(Nc2nccs2)Oc2ccc(C)cc2)cc1 | inactive: -0.5%
COc1ccccc1OP(=O)(Nc1ccc(C)cn1)Oc1ccccc1OC | inactive: 0.3%
CN1CCCC(OC(=O)C(c2ccccc2)c2ccccc2)C1 (stereo not drawn) | inactive: 1.3%
Clc1ccc(Cl)c(NC2=NCC(CBr)S2)c1 (stereo not drawn) | inactive: -0.2%
NC(=O)c1cc([N+](=O)[O-])cc([N+](=O)[O-])c1N | inactive: -0.5%
Cc1ccc(N/C(=N/P(=O)(N2CCOCC2)N2CCOCC2)N2CCOCC2)cc1 | inactive: -0.6%
CN(C(=O)Cc1ccc(Cl)c(Cl)c1)[C@H]1CCCC[C@H]1N1CCCC1 | inactive: -2.8%
CCN(N=Nc1nonc1N)c1nonc1N | inactive: 1.5%
Nc1cccc2ccc([As](=O)(O)O)cc12 | inactive: -0.4%
CN(C(=O)Cc1ccc(Cl)c(Cl)c1)[C@H]1CCCC[C@@H]1N1CCCC1 | inactive: -2.4%
Cc1ccc(NP(=O)(Oc2ccccc2F)Oc2ccccc2F)nc1 | inactive: 0.2%
Cc1cc(SC(NC(=O)c2ccc(F)cc2)C(Cl)(Cl)Cl)ncn1 (stereo not drawn) | inactive: -0.2%
CCOP(=O)(Nc1ccccc1)OCC | inactive: 1.3%
CCCC1OP(N)(=O)OCC1CC (stereo not drawn) | inactive: 1.3%
CC(=O)Nc1ccc([As](=O)(O)O)cc1 | inactive: -0.7%
O=C(O)c1ccccc1[As](=O)(O)O | inactive: 0.5%

Compound | survival enhancement
O=P(Nc1nc2ccc(Cl)cc2s1)(c1ccccc1)c1ccccc1 | inactive: -0.6%
CN(C)P(=O)(N(C)C)n1c(Nc2ccccc2)nnc1-c1ccccc1 | inactive: -1.4%
COC(=O)C1(C)COP(=O)(Nc2ccccc2)OC1 (stereo not drawn) | inactive: -1.6%
O=[N+]([O-])c1cccc(NC2=NCC(CBr)S2)c1 (stereo not drawn) | inactive: -0.4%
O=C(O)CNc1ccc([As](=O)(O)O)cc1 | inactive: 1.1%
CC(C)(C)C(=O)NC(Sc1ccncn1)C(Cl)(Cl)Cl (stereo not drawn) | inactive: 2%
O=[N+]([O-])c1ncn(CCn2ncnc2[N+](=O)[O-])n1 | inactive: -1%
O=C(Nc1cc([As](=O)(O)O)ccc1O)c1ccccc1 | inactive: -0.5%
O=P1(N(CCCl)CCCl)OCCCS1 (stereo not drawn) | inactive: -0.4%
CN(C)C(=O)OCCc1n(C)cc[n+]1C | inactive: -2.7%
CC(C)c1nc(Nc2ccccc2)n(P(=O)(N(C)C)N(C)C)n1 | inactive: 0.5%
CC(C)=N/N=C(\N)N[N+](=O)[O-] | inactive: 0%
c1cc(-c2nn[nH]n2)ccc1-c1nn[nH]n1 | inactive: 4.8%
C[N+]1=C2C=CC=CC=C2SC12C([N+](=O)[O-])=CC([N+](=O)[O-])=C[C-]2[N+](=O)[O-] (stereo not drawn) | inactive: 0.6%
Nc1ccc([As](=O)(O)c2ccc(N)cc2)cc1 | inactive: -0.2%
CCN(/C(=N/P(=O)(N1CCOCC1)N1CCOCC1)N1CCOCC1)c1ccc(OC)cc1 | inactive: 4.7%
CC(=O)N1C2C3N(C(C)=O)C1C1N(C(C)=O)C(C(N1C(C)=O)N3C(C)=O)N2C(C)=O | inactive: 4.2%
O=[N+]([O-])c1cccc2n[nH]nc12 | inactive: 4.3%
O=[N+]([O-])c1cc([N+](=O)[O-])c(CCNc2ccccc2)c([N+](=O)[O-])c1 | inactive: -0.2%
CCc1nc2c(n1)c1c(non1O)c1c2no[n+]1[O-] | inactive: -5.1%
Cc1ccc(NP(=O)(Oc2ccccc2)Oc2ccccc2)nc1 | inactive: -1%
COc1ccc(C2=NCC(CBr)S2)cc1 (stereo not drawn) | inactive: -0.5%
